Assay results reported in ChEMBL document CHEMBL5532674 (2024).
One block for each compound: values may come before it. Activity calls are given as the source filed them. No cut-off for these calls is given here.

Chains of the proteins cited; added tags and fusions are not shown. Lines headed by an entry give the natural chain unless they say otherwise; changes in a name come on top.
UniProt P04757: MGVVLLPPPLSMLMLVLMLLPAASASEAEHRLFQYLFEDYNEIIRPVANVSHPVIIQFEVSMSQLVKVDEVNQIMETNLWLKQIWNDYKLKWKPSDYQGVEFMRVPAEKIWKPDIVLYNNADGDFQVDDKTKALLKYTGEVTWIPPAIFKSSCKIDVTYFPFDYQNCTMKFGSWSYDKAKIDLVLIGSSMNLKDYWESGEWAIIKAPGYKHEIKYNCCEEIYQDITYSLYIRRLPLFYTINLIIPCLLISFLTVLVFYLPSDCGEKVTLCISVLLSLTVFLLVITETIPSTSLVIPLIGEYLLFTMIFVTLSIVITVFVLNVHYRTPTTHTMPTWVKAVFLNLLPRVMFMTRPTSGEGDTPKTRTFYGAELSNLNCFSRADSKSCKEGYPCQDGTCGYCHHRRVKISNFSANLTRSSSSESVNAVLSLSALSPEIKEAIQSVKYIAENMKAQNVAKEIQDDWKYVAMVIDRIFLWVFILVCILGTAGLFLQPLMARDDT
UniProt P12392: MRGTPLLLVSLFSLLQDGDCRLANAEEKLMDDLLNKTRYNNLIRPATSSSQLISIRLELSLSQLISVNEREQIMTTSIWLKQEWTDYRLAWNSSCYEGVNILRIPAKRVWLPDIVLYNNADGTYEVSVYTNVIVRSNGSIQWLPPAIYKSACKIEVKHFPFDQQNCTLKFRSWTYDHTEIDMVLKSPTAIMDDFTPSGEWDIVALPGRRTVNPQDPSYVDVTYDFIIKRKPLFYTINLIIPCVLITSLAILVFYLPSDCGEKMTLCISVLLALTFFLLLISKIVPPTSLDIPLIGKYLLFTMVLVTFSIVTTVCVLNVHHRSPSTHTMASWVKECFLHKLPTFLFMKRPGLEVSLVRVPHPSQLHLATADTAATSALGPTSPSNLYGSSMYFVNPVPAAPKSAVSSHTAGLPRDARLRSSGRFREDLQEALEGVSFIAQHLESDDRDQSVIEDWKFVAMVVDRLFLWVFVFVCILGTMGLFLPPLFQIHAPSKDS
UniProt P08913, whole entry: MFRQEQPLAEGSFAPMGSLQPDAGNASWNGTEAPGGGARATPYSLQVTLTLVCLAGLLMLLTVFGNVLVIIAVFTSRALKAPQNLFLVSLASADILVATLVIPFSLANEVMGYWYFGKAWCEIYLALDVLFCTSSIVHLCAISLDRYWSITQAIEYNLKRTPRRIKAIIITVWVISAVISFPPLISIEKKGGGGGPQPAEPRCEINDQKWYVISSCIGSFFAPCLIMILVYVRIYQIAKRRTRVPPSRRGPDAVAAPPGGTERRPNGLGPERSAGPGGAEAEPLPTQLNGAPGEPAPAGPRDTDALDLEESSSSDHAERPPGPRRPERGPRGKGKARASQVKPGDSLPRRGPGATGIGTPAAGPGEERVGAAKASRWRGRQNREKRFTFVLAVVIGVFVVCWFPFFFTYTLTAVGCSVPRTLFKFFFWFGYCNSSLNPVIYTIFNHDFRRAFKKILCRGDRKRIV
UniProt P18825, whole entry: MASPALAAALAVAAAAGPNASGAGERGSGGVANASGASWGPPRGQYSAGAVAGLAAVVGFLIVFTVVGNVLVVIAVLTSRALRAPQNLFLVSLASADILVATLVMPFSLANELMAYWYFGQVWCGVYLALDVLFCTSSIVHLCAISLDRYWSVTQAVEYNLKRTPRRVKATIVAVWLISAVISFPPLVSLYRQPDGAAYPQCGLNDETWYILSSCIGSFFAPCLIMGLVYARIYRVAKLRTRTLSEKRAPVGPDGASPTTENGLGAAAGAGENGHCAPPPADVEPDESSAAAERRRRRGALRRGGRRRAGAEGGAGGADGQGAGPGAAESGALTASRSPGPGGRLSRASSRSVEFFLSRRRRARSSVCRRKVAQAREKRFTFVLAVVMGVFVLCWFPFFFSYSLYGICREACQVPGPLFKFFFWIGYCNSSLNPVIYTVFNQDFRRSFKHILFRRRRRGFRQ
UniProt P14416, whole entry: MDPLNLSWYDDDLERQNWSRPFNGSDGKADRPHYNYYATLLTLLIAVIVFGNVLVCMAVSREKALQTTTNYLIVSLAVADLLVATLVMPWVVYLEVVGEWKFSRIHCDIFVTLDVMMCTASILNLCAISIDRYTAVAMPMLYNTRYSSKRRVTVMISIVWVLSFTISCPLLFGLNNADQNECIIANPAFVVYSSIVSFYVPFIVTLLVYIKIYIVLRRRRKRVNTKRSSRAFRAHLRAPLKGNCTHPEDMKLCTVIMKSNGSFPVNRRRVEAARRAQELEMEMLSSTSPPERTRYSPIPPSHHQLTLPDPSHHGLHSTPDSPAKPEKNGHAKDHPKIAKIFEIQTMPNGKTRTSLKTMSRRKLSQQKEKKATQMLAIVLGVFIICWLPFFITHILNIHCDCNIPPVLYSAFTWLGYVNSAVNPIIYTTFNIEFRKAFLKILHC
UniProt P35462, whole entry: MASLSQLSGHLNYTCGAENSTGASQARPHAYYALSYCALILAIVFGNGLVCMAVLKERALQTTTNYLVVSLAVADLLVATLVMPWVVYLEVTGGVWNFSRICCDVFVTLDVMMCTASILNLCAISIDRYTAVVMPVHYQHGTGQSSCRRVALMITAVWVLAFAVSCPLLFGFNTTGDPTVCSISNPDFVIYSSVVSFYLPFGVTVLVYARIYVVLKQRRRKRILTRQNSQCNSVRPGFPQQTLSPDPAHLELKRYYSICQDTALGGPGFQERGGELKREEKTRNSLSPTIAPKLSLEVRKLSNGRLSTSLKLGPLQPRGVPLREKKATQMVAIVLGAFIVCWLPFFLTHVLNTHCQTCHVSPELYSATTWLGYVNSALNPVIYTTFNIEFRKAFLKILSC
UniProt P21917, whole entry: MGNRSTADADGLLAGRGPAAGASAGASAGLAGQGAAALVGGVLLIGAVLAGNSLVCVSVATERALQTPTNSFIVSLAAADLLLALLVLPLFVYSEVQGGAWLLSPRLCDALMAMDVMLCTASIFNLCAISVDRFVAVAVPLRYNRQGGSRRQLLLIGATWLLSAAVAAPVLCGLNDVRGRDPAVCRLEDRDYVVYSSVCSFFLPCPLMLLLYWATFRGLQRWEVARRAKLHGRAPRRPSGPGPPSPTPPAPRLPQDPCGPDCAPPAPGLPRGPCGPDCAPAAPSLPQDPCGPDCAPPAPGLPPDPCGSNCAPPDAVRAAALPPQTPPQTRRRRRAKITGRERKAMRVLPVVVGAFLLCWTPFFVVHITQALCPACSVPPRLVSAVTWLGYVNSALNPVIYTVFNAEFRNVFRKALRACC
UniProt P08172, whole entry: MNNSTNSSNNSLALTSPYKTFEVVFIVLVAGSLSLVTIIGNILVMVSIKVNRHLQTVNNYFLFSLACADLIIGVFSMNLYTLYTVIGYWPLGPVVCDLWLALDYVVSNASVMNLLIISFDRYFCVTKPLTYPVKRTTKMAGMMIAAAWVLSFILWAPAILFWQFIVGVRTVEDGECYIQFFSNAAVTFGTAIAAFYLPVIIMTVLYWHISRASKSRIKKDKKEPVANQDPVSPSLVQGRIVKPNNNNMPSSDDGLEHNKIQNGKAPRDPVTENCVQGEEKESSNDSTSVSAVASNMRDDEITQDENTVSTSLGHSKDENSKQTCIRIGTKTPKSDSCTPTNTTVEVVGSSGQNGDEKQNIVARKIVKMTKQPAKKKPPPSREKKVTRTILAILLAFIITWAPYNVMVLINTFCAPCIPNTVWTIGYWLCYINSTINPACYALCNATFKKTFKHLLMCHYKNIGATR
UniProt P08173, whole entry: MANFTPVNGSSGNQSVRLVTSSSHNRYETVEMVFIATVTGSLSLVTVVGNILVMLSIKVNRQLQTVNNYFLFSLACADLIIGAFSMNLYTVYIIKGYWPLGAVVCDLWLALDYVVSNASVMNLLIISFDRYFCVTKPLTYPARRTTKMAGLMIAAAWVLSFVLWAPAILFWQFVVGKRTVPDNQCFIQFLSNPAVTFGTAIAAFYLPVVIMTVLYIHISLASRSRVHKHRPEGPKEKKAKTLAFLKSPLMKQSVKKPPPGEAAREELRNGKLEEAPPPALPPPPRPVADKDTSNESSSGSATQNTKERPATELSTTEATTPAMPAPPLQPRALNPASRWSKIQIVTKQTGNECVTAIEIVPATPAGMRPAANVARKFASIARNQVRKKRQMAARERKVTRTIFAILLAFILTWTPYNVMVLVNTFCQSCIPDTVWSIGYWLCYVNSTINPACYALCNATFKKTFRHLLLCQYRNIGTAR

What was measured:
[1] = target: T1, Neuronal acetylcholine receptor; alpha3/beta4 (Rattus norvegicus) (UniProt P04757+P12392); assay: Agonist activity at rat alpha3beta4 nAChR expressed in HEK293 cells assessed as increase in calcium flux by measuring increase in fluorescence intensity by FLIPR assay; type: cell-based; conditions: filed as agonist, dose 0.0001-100 µM
[2] = target: T1, Neuronal acetylcholine receptor; alpha3/beta4 (Rattus norvegicus); assay: Partial agonist activity at rat alpha3beta4 nAChR expressed in HEK293 cells assessed as increase in calcium flux by measuring increase in fluorescence intensity by FLIPR assay; type: cell-based; conditions: filed as partial agonist, dose 0.0001-100 µM
[3] = type: ADME, organism-based, Sprague-Dawley; conditions: rat, in vivo, ip, 10 mg/kg, 10 min
[4] = type: ADME, organism-based, Sprague-Dawley; conditions: rat, in vivo, ip, 10 mg/kg, 24 h
[5] = type: ADME, organism-based, Sprague-Dawley; conditions: rat, in vivo, ip, 10 mg/kg, 24 h; remark: listed apart in the source
[6] = target: Alpha-2A adrenergic receptor (Homo sapiens) (UniProt P08913); conditions: dose 10.0 µM
[7] = target: Alpha-2C adrenergic receptor (Homo sapiens) (UniProt P18825); conditions: dose 10.0 µM
[8] = target: D(2) dopamine receptor (Homo sapiens) (UniProt P14416); conditions: dose 10.0 µM
[9] = target: D(3) dopamine receptor (Homo sapiens) (UniProt P35462); conditions: dose 10.0 µM
[10] = target: D(4) dopamine receptor (Homo sapiens) (UniProt P21917); conditions: dose 10.0 µM
[11] = target: Muscarinic acetylcholine receptor M2 (Homo sapiens) (UniProt P08172); conditions: dose 10.0 µM
[12] = target: Muscarinic acetylcholine receptor M4 (Homo sapiens) (UniProt P08173); conditions: dose 10.0 µM

Structure (SMILES): Cc1cc([C@H]2C[C@@H]3CC[C@H]2N3)on1
Activity [1]: Active

Structure (SMILES): CN1[C@@H]2CCC[C@H]1C[C@@H](Nc1ccccc1Br)C2
Activity [2]: Active

Structure (SMILES): CC1=CC[C@@H]2C[C@H]1[C@H](c1ccnc3ccccc13)NC2(C)C
Cmax [3]: 723.3 ng/mL | AUC [4]: 602.4 ng·h/mL | beta t1/2 [5]: 1.7 h

Activity [6]: < 50% | Activity [7]: < 50% | Activity [8]: < 50% | Activity [9]: < 50% | Activity [10]: < 50% | Activity [11]: < 50% | Activity [12]: < 50%
Structure (SMILES): CC1=CC[C@@H]2C[C@H]1[C@H](c1cc(F)cc(F)c1)NC2(C)C
